Here are results for 7 substances from patent publication US12655189B2, “DOTA binding chimeric antigen receptor for cellular therapy” (THE TRUSTEES OF THE UNIVERSITY OF PENNSYLVANIA, priority 2019, dated 2026).

Assay [1] relates to Skov3 cells expressing fLuc. In words: In vivo anti-tumor activity versus DOTA-conjugation valency. Also on record: species or system NSG mice. The note with it: 24 days after CAR T cell injection; DOTA BBz T cells, 25 ug ligand I.P. every 4 days. On the procedure: NOD.Cg-Prkdc^scid Il2rg^tm1wj1/SzJ (NSG) mice were injected in the intraperitoneal (I.P.) cavity with 1×10^6 Skov3 cells expressing fLuc (FIGS. 28A-28B). After 6 days to allow tumor engraftment, 25 ug of targeting ligand was injected I.P. into each mouse. One day later, 10×10^6 CAR+ T cells were injected I.P. Treatment groups were given DOTA BBz T cells and either high valency or low valency Her-Bn-DOTA-Y. Control groups were given DOTA Dz T cells and targeting ligands or DOTA BBz T cells and saline. Targeting ligand was injected every 4 days and tumors were monitored via bioluminescence imaging.

The test system of assay [2] is MDA468 (CD20-/EGFR+) cells. In words: Luciferase lysis assay, MDA468. As to conditions: 16 hours, 2.5:1 E:T, average of 1 DOTA per antibody. The class given is cell-based. The method, then: Cetuximab and Rituximab were conjugated to Bn-DOTA to create targeting ligands with an average of 1 DOTA molecule per antibody, confirmed by MALDI TOF. MDA468 (CD20-/EGFR+) cells and Ramos (CD20+/EGFR−) cells expressing fLuc were incubated for 16 hours with DOTA CAR T cells at a 2.5:1 E:T ratio and targeting ligands at a range of concentrations. Each condition was run in triplicate. Luminescence was measured after co-culture and used to calculate lysis.

Assay [3] deals with Skov3 (HER2+) cells expressing firefly luciferase. The assay can be described thus: Luciferase specific lysis assay, Skov3. The class given is cell-based. The note with it: 16 hours, 2.5:1 E:T ratio, valency or hinge varied. The method, then:
Herceptin was conjugated to DOTA-NHS molecules at varying molar ratios in order to create targeting ligands with lower valency. Skov3 (HER2+) cells expressing firefly luciferase (fLuc) were incubated for 16 hours with DOTA CAR T cells at a 2.5:1 E:T ratio and targeting ligands at a range of concentrations. Each condition was run in triplicate. Luminescence was measured after co-culture and used to calculate specific lysis (FIG. 21, right panel).
DOTA CARs with varying hinge lengths were created to allow the possibility of optimizing physical interactions at the cell surface (FIG. 23). The standard DOTA CAR uses a CD8a hinge (45 AA). DOTA CARs with a shorter IgG4 hinge (12 AA) and a longer IgG4-CH2CH3 hinge (216 AA) were created. The IgG4 hinge was inserted with and without an amino acid change that allows cross-linking. To assess their function, Skov3 (HER2+) cells expressing fLuc were incubated for 16 hours with DOTA CAR T cells at a 2.5:1 E:T ratio and targeting ligand at a range of concentrations. Each condition was run in triplicate. Luminescence was measured after co-culture and used to calculate lysis.

Another assay concerns SKBR3 (Her2+) cells. In words: Redirected lysis of SKBR3 cells by DOTA CAR T cells (xCellegence). The class given is cell-based, human. The note with it: DOTA CAR T cells plus DOTA-Y conjugated Herceptin. The method, then: (§1) FIGS. 5A-5F illustrate the ability to change the DOTA-Y antibody specificity to target CAR T cells against various cell surface antigens. FIG. 5A is an experimental schematic illustrating anti-DOTA immune receptor T cells lyse multiple tumor cells with introduction of specific DOTA-Y labeled antibodies. […] DOTA CAR T cells were added to wells at a density of 0.5×10^5 receptor positive cells/well. Measurements were continued for 4 days. xCellegence software was used to normalize readings and calculate lysis values compared to tumor only control. Lysis (%) of Her2+ SKBR3 cells (left) and of FRα+ T47D cells (right) 16 hours post T cell addition is shown. […] T cells added at T=0. […] Measurements were continued for 4 days. xCellegence software was used to normalize readings and calculate lysis values compared to tumor only control. T cells added at T=0.
(§2) To investigate the ability of DOTA-Y-CAR T cell complexes to lyse target cells, HER2-specific Herceptin-DOTA-Y-CAR T cell complexes were co-cultured with Her2^+ SKBR3 breast cancer cells (FIG. 3G). Cancer cell killing was not detectable in co-cultures of DOTA CAR T cells and cancer cells until Y-DOTA-labeled Herceptin Ab was added to culture at various doses.
The specificity of pre-loaded DOTA-Y antibodies was tested. […]

In another assay the test system is MDA468 (EGFR+) cells. The assay can be described thus: Redirected lysis of MDA468 cells by DOTA CAR T cells (xCellegence). In kind it is cell-based, human. As to conditions: for lysis of MDA468 (EGFR+) cells: DOTA CAR T cells plus varying amounts of targeting ligand. On the procedure:
as §1, §2
The specificity of pre-loaded DOTA-Y antibodies was tested. Antibodies specific for the cell surface receptors Her2 (Herceptin), Folate receptor (Mov18), or EGFR (Cetuximab), which were conjugated to DOTA-Y, were combined with CAR T cells expressing various intracellular domains and incubated with multiple cell lines, including SKBR3 (Her2+), T47D (Fra+), SKOV3 (Her2^+), and MDA468 (EGFR^+) cells (FIG. 5A). DOTA-28z-CAR T cells combined with Herceptin or Mov18 antibodies were able to lyse SKBR3 and T47D cells, respectively (FIG. 5B). Additionally, various amounts of Herceptin or Cetuximab antibody was tested in SKOV3 or MDA468 cells, respectively (FIGS. 5C and 5D, respectively).
Varying the number of chelators per antibody allows for reduced non-specific cell lysis while maintaining strong lytic function (FIG. 8)

Assay [4] has as its system anti-DOTA immune receptor T cells. In words: Pre-loading of DOTA-Y labeled antibody onto DOTA immune receptor T cells (flow cytometry). In kind it is cell-based, human. The text has this: FIGS. 4A-4C illustrate that anti-DOTA immune receptor T cells permit pre-loading of DOTA-Y labeled targeting ligands. FIG. 4A illustrates the pre-loading protocol. 4D5 is a humanized Herceptin antibody.
One key feature of the present invention is the ability to alter the specificity of the DOTA-Y by loading the DOTA with target-specific ligands/antibodies. A protocol for pre-labeling the antibodies was optimized and tested. Primary human T cells were transduced with lentivirus containing GFP and DOTA immune receptor (FIG. 4A). […] Excess antibody was washed and, at various time points post-antibody addition, cells were stained with soluble recombinant Her2-His, followed by PE anti-His APC antibody and analyzed by flow cytometry, gating on live cells.
On the technique in general: A flow cytometer gives signals particle by particle.

“Also recorded” adds a separate entry of the source.

For the substance “high valency Her-Bn-DOTA-Y: Herceptin-Bn-DOTA-Y targeting ligand of high DOTA valency”, the “tumor burden (bioluminescence)” value in assay [1] is “significantly reduced (p=0.012)”.

As to “Cetuximab-Bn-DOTA: Cetuximab conjugated to Bn-DOTA, average of 1 DOTA molecule per antibody”, the “lysis of MDA468 cells” value in assay [2] is on record as “able to specifically lyse their respective target cell lines”.

For the substance “Herceptin-NHS-DOTA: Herceptin conjugated to DOTA-NHS molecules”, in assay [3], the “specific lysis of Skov3 (HER2+) cells” value is listed as “required a higher valency to effectively lyse target cells”.

As to “low valency Her-Bn-DOTA-Y: Herceptin-Bn-DOTA-Y targeting ligand of low DOTA valency”, the “tumor burden (bioluminescence)” value in assay [1] is “reduced in two mice of the low valency group, but this was not significant”.

Take “Herceptin-DOTA-Y: Herceptin labeled with DOTA-NHS-ester and incubated with yttrium chloride”: the “lysis of SKBR3 (Her2+) cells” value in the assay with SKBR3 (Her2+) cells was “rapid and “on demand””. In the assay on MDA468 (EGFR+) cells, the “lysis of MDA468 (EGFR+) cells” value is “only the EGFR-specific Cetuximab-loaded CAR was able to lyse”. Besides, the “loading of antibody onto DOTA T cells” value in assay [4] (1 hour at 37° C., detected with Her2-His) is reported as “dose-dependent, low level loading”. Besides, the “time to full loss of loading” value in assay [4] (post-antibody addition) was at most 72 h.

For “Cetuximab-DOTA-Y: EGFR-specific Cetuximab antibody conjugated to DOTA-Y”, the “lysis of MDA468 (EGFR+) cells” value in the assay with MDA468 (EGFR+) cells is given as “able to lyse the MDA468 cells; also recorded: dose-dependent lysis of MDA468 cells”.

Turning to “Herceptin-Bn-DOTA: Herceptin conjugated with P-SCN-Bn-DOTA chelator”, the “specific lysis of Skov3 (HER2+) cells” value in assay [3] is recorded as “reduced off-target lysis while maintaining efficacy against antigen-expressing cells”. Moreover, the “non-specific lysis of MDA468 (Her2 negative) cells” value in the assay on MDA468 (EGFR+) cells (Herceptin-based ligand on antigen negative cells) is recorded as “occurs at high concentrations of the targeting ligands”.
